SIRT5 inh: sirtuin-5 (human) deacylase inhibition | Q9NXA8 | 330,000 tested, 1.1% active | inhibition, % at 15 µM | Purified SirT5, succinyl-peptide AMC, trypsin-coupled fluorescence | AID 652115; in the data active = inhibition above about 15%
ERp5 inh: blocks human ERp5 reductase activity on insulin | 350,000 tested, 0.05% active | inhibition, % at 9.99 µM | Q15084 | ERp5 insulin aggregation, absorbance 650 nm, 90 min | AID 651711;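 active = mean replicate inhibition above about 25%, with every replicate also reaching it, limit read from the data, passing the limit was not always enough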
FGF22 binding: binders of recombinant human FGF22 by thermal shift; SYPRO orange fluorescence; percent of sucrose octasulfate shift, DMSO zero; 340,000 tested, 1.5% active; activity (Tm shift, normalised), % at 9.99 µM; Q9HCT0;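 active = mean Tm shift, scaled 0 neutral to 100 positive control, at about 1.3% or above, every replicate too, limit read from the data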
PDI turbidity: blocks human protein disulfide isomerase activity; P07237; inhibition, % at 10 µM; 350,000 tested, 0.052% active; PDI insulin aggregation turbidity, A650, 90 min; AID 588391;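 active = mean inhibition across replicates of 30% or more, whatever share of single replicates reach that level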
S100A4 MyoIIA: inhibitors of human S100A4 binding to myosin IIA peptide; P26447; S100A4/TAMRA-MyoIIA peptide fluorescence polarization; inhibition, % at 10.7 µM; 360,000 tested, 0.14% active;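 active = mean inhibition of at least 70% across replicates, with every replicate also reaching that level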
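incubation = readout 5 min after mixing, signal stable up to 60 min | system = S100A4 monomer protein | buffer or medium = HEPES pH 7.2 with CaCl2, KCl, NaCl, DTT, Triton | benchmarks = neutral control DMSO, positive control TFP | also added = fluorescent myosin IIA peptide, 5 nM | compound dosing = one concentration per compound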
UUG fidelity: modulators of start codon recognition fidelity in yeast; AID 602363; hit rate 0.13% among 350,000; activity score, % at 18.7 µM; S. cerevisiae UUG-firefly luciferase reporter, luminescence/redox ratio;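 active = replicate mean at a twofold rise or more, about +100% in these data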;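 note: firefly luciferase made from a UUG start codon reports start codon fidelity; reporter light over untreated wells divided by growth signal over untreated wells; some hits fall short of that in this replicate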
* marks the source's active call; other numbers are inactive results; / = no result given; ! = a repeat was not active. Hits are enriched below; roughly 2.2% of the tested compounds scored in any of these assays.

SMILES	SIRT5 inh	ERp5 inh	FGF22 binding	PDI turbidity	S100A4 MyoIIA	UUG fidelity
COc1ccc(NC(=O)N(C)C[C@@H]2Oc3c(NC(=O)c4cc(C)nn4C)cccc3C(=O)N([C@@H](C)CO)C[C@H]2C)cc1	-3.6	-6.7	0.0	/	-5.8	/
Cc1ccccc1CN1N=C(/C=C/c2ccccc2)CCC1=O	5.1	2.6	44.5*	-2.1	-3.4	-8.7
CC(=O)N(C)C[C@H]1Oc2cc(C#CCC(C)C)ccc2S(=O)(=O)N([C@H](C)CO)C[C@H]1C	-1.2	-0.1	-0.8	/	-2.9	10.2
C[C@@H]1CN([C@H](C)CO)S(=O)(=O)c2ccc(-c3cccnc3)cc2O[C@@H]1CN(C)C(=O)CC1CC1	2.7	1.5	-0.4	/	107.6*	15.5
CC(C)CC#Cc1ccc2c(c1)O[C@H](CN(C)C(=O)C1CCCCC1)[C@H](C)CN([C@H](C)CO)S2(=O)=O	2.5	-1.9	0.1	/	2.2	-17.2
CC(=O)N(C)C[C@@H]1Oc2cc(C#CCC(C)C)ccc2S(=O)(=O)N([C@H](C)CO)C[C@@H]1C	0.4	-1.7	-0.8	/	114.5*	55.8
CC(C)CC#Cc1ccc2c(c1)O[C@@H](CN(C)C(=O)C1CCCCC1)[C@@H](C)CN([C@H](C)CO)S2(=O)=O	22.0*	4.0	-0.4	/	-1.1	-22.6
CC(C)CC#Cc1ccc2c(c1)O[C@@H](CN(C)C(=O)CC1CC1)[C@@H](C)CN([C@H](C)CO)S2(=O)=O	24.9*	-0.4	-0.5	/	2.4	0.3
O=C(NC[C@H]1CC[C@@H]2[C@@H](CN2S(=O)(=O)c2ccccc2[N+](=O)[O-])O1)C1CCCC1	-0.7	4.5	/	/	0.0	/
CC(C)CC#Cc1ccc2c(c1)O[C@@H](CN(C)C(=O)C1CCCCC1)[C@H](C)CN([C@H](C)CO)S2(=O)=O	19.2*	5.9	0.0	/	9.1	-16.3
CC(C)CC#Cc1ccc2c(c1)O[C@H](CN(C)C(=O)C1CCC1)[C@@H](C)CN([C@H](C)CO)S2(=O)=O	5.4	3.8	-0.2	/	-3.2	14.1
NNC(=O)c1cc(-c2ccc(O)cc2)nc2ccc(Br)cc12	2.3	9.8	-0.1	40.4*	-5.6	-8.2
O=C(NC1CCCC1)N1CCCCN2[C@@H](CO)[C@@H](c3ccc(-c4cccnc4)cc3)[C@@H]2C1	-0.8	0.0	-0.7	/	97.7*	-0.3
COc1ccc(C#Cc2ccc([C@@H]3[C@@H](CO)N4C(=O)CN(C(=O)c5cccnc5)C[C@H]34)cc2)cc1	4.5	11.6	/	/	-3.9	/
O=C(c1cccnc1)N1CCCCN2[C@H](CO)[C@@H](c3ccc(C#Cc4ccccn4)cc3)[C@@H]2C1	30.7*	2.9	-0.3	/	16.0	1.8
COc1ccc(C#Cc2ccc([C@H]3[C@H](CO)N4C(=O)CN(C(=O)c5cccnc5)C[C@@H]34)cc2)cc1	36.9*	2.7	/	/	-5.6	/
CCCC#Cc1ccc([C@H]2[C@H]3CN(C(=O)Cc4cccnc4)CC(=O)N3[C@H]2CO)cc1	21.8*	-0.3	/	/	22.3	/
CCCC#Cc1ccc([C@H]2[C@H](CO)N3C(=O)CN(C(=O)Cc4cccnc4)C[C@@H]23)cc1	-3.3	7.0	/	/	17.2	/
COCC(=O)N1[C@@H]2CN(C(=O)NC(C)C)c3ccccc3[C@@H]2[C@@H]1CO	-1.9	1.7	0.4	/	1.8	-1.6
O=c1[nH]cc(CN2CCOCC2)c(=O)[nH]1	/	11.5	43.1*	1.2	-1.5	-9.5

Reprinted at random: two records from the list, in no set order.
SMILES	SIRT5 inh	ERp5 inh	FGF22 binding	PDI turbidity	S100A4 MyoIIA	UUG fidelity
O=C(NC1CCCC1)N1CCCCN2[C@@H](CO)[C@@H](c3ccc(-c4cccnc4)cc3)[C@@H]2C1	-0.8	0.0	-0.7	/	97.7*	-0.3
CC(C)CC#Cc1ccc2c(c1)O[C@H](CN(C)C(=O)C1CCCCC1)[C@H](C)CN([C@H](C)CO)S2(=O)=O	2.5	-1.9	0.1	/	2.2	-17.2

5 entries already listed, sorted by the value under S100A4 MyoIIA, low to high:
Compound | SIRT5 inh | ERp5 inh | PDI turbidity | S100A4 MyoIIA | UUG fidelity
NNC(=O)c1cc(-c2ccc(O)cc2)nc2ccc(Br)cc12 | 2.3 | 9.8 | 40.4* | -5.6 | -8.2
Cc1ccccc1CN1N=C(/C=C/c2ccccc2)CCC1=O | 5.1 | 2.6 | -2.1 | -3.4 | -8.7
CC(C)CC#Cc1ccc2c(c1)O[C@H](CN(C)C(=O)C1CCC1)[C@@H](C)CN([C@H](C)CO)S2(=O)=O | 5.4 | 3.8 | / | -3.2 | 14.1
CC(=O)N(C)C[C@H]1Oc2cc(C#CCC(C)C)ccc2S(=O)(=O)N([C@H](C)CO)C[C@H]1C | -1.2 | -0.1 | / | -2.9 | 10.2
C[C@@H]1CN([C@H](C)CO)S(=O)(=O)c2ccc(-c3cccnc3)cc2O[C@@H]1CN(C)C(=O)CC1CC1 | 2.7 | 1.5 | / | 107.6* | 15.5

(continued)
SMILES	SIRT5 inh	ERp5 inh	FGF22 binding	PDI turbidity	S100A4 MyoIIA	UUG fidelity
COc1ccccc1OCC(=O)N/N=C1/C=C(C)CC1	-1.5	-2.8	43.2*	3.5	2.0	/
COc1ccccc1OCC(=O)NNC(=O)CCCC(=O)NNC(=O)COc1ccccc1OC	1.1	0.9	0.0	-2.4	0.3	-3.5
C=CC[C@@H](CC(=O)OC(C)(C)C)C(=O)OC[C@@H]1CCCN1C(=O)[C@@H](CC=C)CC(=O)N[C@@H](CO)Cc1ccccc1	25.3*	1.5	0.0	3.2	11.4	19.4
C=CC[C@@H](CC(=O)N[C@H](CO)Cc1ccccc1)C(=O)N[C@H](C)COC(=O)[C@@H](CC=C)CC(=O)OC(C)(C)C	/	3.9	0.1	-5.4	-1.6	6.0
C=CC[C@@H](CC(=O)N[C@H](CO)Cc1ccccc1)C(=O)N[C@@H](COC(=O)[C@@H](CC=C)CC(=O)OC(C)(C)C)Cc1ccccc1	18.3*	2.7	0.6	3.2	20.8	10.1
C[C@@H]1CN([C@H](C)CO)C(=O)c2cc(NS(=O)(=O)c3cccs3)ccc2O[C@H]1CN(C)C(=O)NC1CCCCC1	1.4	5.4	-0.7	/	1.4	5.9
C[C@H](CO)N1C[C@H](C)[C@@H](CN(C)C(=O)NC2CCCCC2)Oc2ccc(NS(=O)(=O)c3cccs3)cc2C1=O	16.4*!	-5.3	-0.8	-3.4	-0.6	23.2
C[C@H](CO)N1C[C@H](C)[C@@H](CN(C)S(=O)(=O)c2cccs2)OCCCC[C@H](C)Oc2ccc(NS(=O)(=O)c3ccc(Cl)cc3)cc2C1=O	-0.8	-3.1	-0.7	/	-10.2	1.6
C[C@@H]1CCCCO[C@H](CN(C)S(=O)(=O)c2cccs2)[C@@H](C)CN([C@@H](C)CO)C(=O)c2cc(NS(=O)(=O)c3cccs3)ccc2O1	/	3.1	-0.4	/	103.2*	/
C[C@H](CO)N1C[C@H](C)[C@H](CN(C)S(=O)(=O)c2cccs2)OCCCC[C@H](C)Oc2ccc(NS(=O)(=O)c3ccc(Cl)cc3)cc2C1=O	4.7	-1.8	1.2*	/	-1.2	-3.6
CC(C)NC(=O)Nc1ccc2c(c1)CC(=O)N([C@H](C)CO)C[C@H](C)[C@@H](CN(C)Cc1ccc(C(F)(F)F)cc1)O2	3.9	2.4	-0.5	/	2.5	25.4
COc1ccc2c3c([nH]c2c1)[C@H](CO)N(Cc1ccccc1F)CC31CCN(CC2CC2)CC1	2.9	-3.0	0.0	/	-3.8	/
CCCCN(C)Cc1c(C)[nH]c2ccccc2c1=O	-0.4	-3.4	43.3*	8.6	-4.9	/
COCCN(C(=O)c1csnn1)C(C(=O)NC1CCCCC1)c1ccccc1F (stereo unspecified)	0.3	-1.9	-0.3	0.4	0.2	-5.9
COCCN(C(=O)C(=O)NC1CCCC1)C(C(=O)NC1CCCC1)c1ccccc1F (stereo unspecified)	-0.4	-0.8	43.6*	-2.9	2.2	-11.6
CN(C)/C=C(/C(=O)c1ccc(Cl)cc1)S(C)(=O)=O	2.9	-1.7	0.2	-0.4	0.9	/
CN(C)/C=C(/C(=O)c1ccc(Cl)c(Cl)c1)S(C)(=O)=O	9.6	-0.5	43.6*	4.7	8.4	-12.3
COc1ccc(C(=O)NCc2nc(C)c(C)s2)cc1OC1CCN(C(C)C)CC1	15.3*	9.0	-0.2	-5.3	3.1	-13.9
CCC(=O)N1N=C(c2ccc(Cl)cc2)CC1c1ccco1 (stereo unspecified)	-2.2	3.8	-0.2	3.8	6.6	/
